# Antibody variant affinities, Ab-14 light chain, assay 1

From the AlphaSeq antibody data of Engelhart et al. 2022 (doi:10.1038/s41597-022-01779-4), copy in the FLAb collection.

The target is the same throughout: PDVDLGDISGINAS, from the HR2 region of SARS-CoV-2 spike.

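The library (AAYL50) carries one to three amino acid substitutions per variant, with no insertions or deletions. The scFvs were displayed on barcoded MATa yeast, the peptide on MATalpha yeast. The frequency of each diploid, read from paired DNA barcodes, reflects how well the two displayed proteins bind. Read counts were normalised to the haploid input and turned into Kd by a linear fit to BCL2-family pairs of known affinity, for each replicate. The assay was run in three technical replicates.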

Each scFv is VH, three GGGGS repeats, VL, as in the parent Ab-14, and differs from it in the CDRs of the light chain only.
VH: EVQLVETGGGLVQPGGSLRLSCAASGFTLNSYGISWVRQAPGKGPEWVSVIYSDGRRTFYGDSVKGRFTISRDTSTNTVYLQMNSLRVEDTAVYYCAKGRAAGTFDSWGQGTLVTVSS
VL: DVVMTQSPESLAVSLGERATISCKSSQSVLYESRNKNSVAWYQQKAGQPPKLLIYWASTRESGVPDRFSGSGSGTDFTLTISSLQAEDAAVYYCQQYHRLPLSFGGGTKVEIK

The parent's light chain CDRs are KSSQSVLYESRNKNSVA, WASTRES, QQYHRLPLS; each variant's own CDRs replace them letter for letter.
This list gathers variants with a substitution at R34 (VL, numbered from residue 1).
Affinities are written as log10 Kd with Kd in nM; a lower number is a better binder.
Replicates are averaged; those with no signal do not enter the mean.
A pair that was not seen in that replicate is written "ND"; this usually means weak binding, but a binder can also be missed.
Parent in this assay: reference entry 0.65, copy in this library 1.68.

| CDR-L1 | CDR-L2 | CDR-L3 | log10 Kd, replicates | log10 Kd (nM), mean | signal with controls |
|---|---|---|---|---|---|
| KSSQSVLYESKNKLSVA | WASNRES | QQYHRLPLS | 3.27 / 3.37 / 4.05 | 3.56 | 5 of 9 (4.40) |
| KSSQSVLYESDAKNSVA | WASTRES | QQYHRLPLL | 5.18 / ND / ND | 5.18 | 4 of 9 (5.03) |
| KSRQSVLYESCNKNSVC | WASTRES | QQYHRLPLS | ND / ND / ND | ND | 0 of 9 |
| KSSQSVLYESFNKNSIA | WASTRES | QQTHRLPLS | 0.46 / 0.71 / 0.59 | 0.58 | 0 of 9 |
| KSSQSVLYESEYKNSVA | WASTRES | QQYHRLPLS | 0.26 / 0.60 / 0.49 | 0.45 | 3 of 9 (3.84) |
| KSSQSALYESKNKNSVA | WASTRES | QQRHRLPLS | ND / ND / ND | ND | 4 of 9 (4.27) |
| KSSQSVLQESNNKNSVA | WASTRES | QQYHRIPLS | 1.58 / 1.58 / 2.42 | 1.86 | 2 of 9 (3.77) |
| KSSQSVLYESNAKNSVA | WASTRES | QQYHQLPLS | 0.47 / 0.66 / 0.58 | 0.57 | 7 of 9 (4.65) |
| KSWQSVLYESTNNNSVA | WASTRES | QQYHRLPLS | 4.00 / ND / 2.87 | 3.44 | 0 of 9 |
| KSSQSVLYESINKNSVA | WASGRES | QQYHQLPLS | 2.00 / 1.99 / 2.07 | 2.02 | 2 of 9 (4.62) |
| KSSQSVLYESWYKNSVA | WASTRES | QHYHRLPLS | 1.32 / 1.33 / 1.25 | 1.30 | 1 of 9 (2.80) |
| KSSQSVLYMSKNKNSVA | WASTRES | QQYHRLPLS | 6.41 / 4.10 / ND | 5.25 | 3 of 9 (4.96) |
| KSSQSELYESFNKNSVA | WASTDES | QQYHRLPLS | ND / 3.17 / 4.63 | 3.90 | 1 of 9 (4.19) |
| KSSQSVLYESHNKNSVA | WASTRES | QQYHRHPQS | ND / 4.14 / ND | 4.14 | 0 of 9 |
| KSSQSVLYFSDNKNSVA | WASMRES | QQYHRLPLS | ND / ND / ND | ND | 1 of 9 (4.67) |
| KSMQSVLYESGNKNSVA | WASTRES | QQYNRLPLS | 0.84 / 0.99 / 0.70 | 0.84 | 2 of 9 (4.71) |
| KSSQSVLYESHNKNAVA | WASTRES | QQYRRLPLS | 1.04 / 1.11 / 1.10 | 1.08 | 5 of 9 (4.41) |
| KSSQSVLYESLNFNSVA | WASTWES | QQYHRLPLS | ND / ND / ND | ND | 0 of 9 |
| KSSQSVLYESININTVA | WASTRES | QQYHRLPLS | ND / ND / ND | ND | 1 of 9 (5.24) |
| KSSQSVLYESFNKNVKA | WASTRES | QQYHRLPLS | ND / ND / ND | ND | 0 of 9 |
| KCSQSVLYESKNKNSVA | WASTRES | QQYHGLPLS | 1.51 / 1.55 / 1.72 | 1.60 | 2 of 9 (3.68) |
| KSWQSVLYESFNKNSVA | WASTRES | QQYRRLPLS | 1.59 / 1.53 / 1.62 | 1.58 | 1 of 9 (3.76) |
| KSSQSVLYESLNVNSVA | WASTRES | QQEHRLPLS | ND / ND / ND | ND | 2 of 9 (2.52) |
| KSSQSVLYESNWKNSVR | WASTRES | QQYHRLPLS | 5.20 / ND / ND | 5.20 | 0 of 9 |
| KSSQSVLYESCNKNSVA | WASMRES | QQYHRNPLS | 1.31 / 1.44 / 1.32 | 1.35 | 4 of 9 (4.05) |
| KSSQSVLYESINKNSVA | WASTREC | QQYQRLPLS | 2.43 / 2.31 / 1.74 | 2.16 | 0 of 9 |
| KSSQSVLYESFPKNSVA | WASTTES | QQYHRLPLS | ND / ND / ND | ND | 0 of 9 |
| KSSQSVLYESKNKNSVA | WASTRES | QQYKRQPLS | ND / 3.17 / ND | 3.17 | 2 of 9 (2.80) |
| KSSQSVLYESFNKNSVA | WASTRES | QQYHHIPLS | 1.92 / 1.41 / 1.43 | 1.58 | 0 of 9 |
| KSSQSVLQESWNKNSVA | WASTRES | QQYHRLPLS | 0.52 / 0.70 / 0.22 | 0.48 | 0 of 9 |
| GSSQSVLYESNNKNSVA | WASTLES | QQYHRLPLS | 1.34 / 2.03 / 1.38 | 1.58 | 1 of 9 (3.07) |
| KSSQSVLYESINKNRDA | WASTRES | QQYHRLPLS | ND / ND / ND | ND | 1 of 9 (4.24) |

As a blank, each scFv also met three strains without target: over library AAYL50, 18% of these pairings were detected, typically at 4.19 and seldom below 2.99. For each scFv, signals with the empty controls are counted beside the result, with their mean in brackets.